Patent US9409882B2, “Pyridine derivatives” (Hoffmann-La Roche Inc., priority 2012, dated 2016)

Protein sequences, listed by entry. Tags and fused reporters are not part of them. Residues count along the entry.
UniProt P25774, 115-331: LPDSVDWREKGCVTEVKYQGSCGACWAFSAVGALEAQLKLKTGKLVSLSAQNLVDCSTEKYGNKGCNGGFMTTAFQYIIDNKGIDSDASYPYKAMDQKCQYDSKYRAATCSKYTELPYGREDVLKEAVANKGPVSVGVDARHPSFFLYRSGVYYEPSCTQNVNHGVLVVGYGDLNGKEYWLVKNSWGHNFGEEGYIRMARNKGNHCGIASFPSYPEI
UniProt P07711, 114-333: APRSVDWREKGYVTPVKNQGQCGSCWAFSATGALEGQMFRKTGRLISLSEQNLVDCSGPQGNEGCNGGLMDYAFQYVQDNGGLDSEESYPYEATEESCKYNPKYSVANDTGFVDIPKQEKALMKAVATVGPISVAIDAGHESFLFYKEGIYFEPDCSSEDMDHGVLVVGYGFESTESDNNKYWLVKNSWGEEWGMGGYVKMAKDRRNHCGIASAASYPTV

Target: human Cathepsin S (Homo sapiens (Human), UniProt P25774)
Assay: Cathepsin enzyme inhibition assay (fluorogenic peptide substrate), human Cat S
Type: biochemical
Settings: human Cat S 1 nM, substrate Z-Val-Val-Arg-AMC 20 μM, pH 6.5
Procedure: (§1) Cathepsin Enzyme Inhibition Assay
(§2) Enzyme activity is measured by observing the increase in fluorescence intensity caused by cleavage of a peptide substrate containing a fluorophore whose emission is quenched in the intact peptide.
(§3) Assay buffer: 100 mM potassium phosphate pH 6.5, EDTA-Na 5 mM, Triton X-100 0.001%, DTT 5 mM.
(§4) Enzymes (all at 1 nM): human and mouse Cathepsin S, Cat K, Cat B, Cat L.
(§5) Substrate (20 μM): Z-Val-Val-Arg-AMC, except for Cat K which uses Z-Leu-Arg-AMC (both from Bachem).
(§6) AMC=7-Amino-4-Methyl-Coumarin.
(§7) Excitation 360 nm, Emission 465 nm.
(§8) Enzyme is added to the substance dilutions in 96-well microtitre plates and the reaction is started with substrate. Fluorescence emission is measured over 20 minutes, during which time a linear increase is observed in the absence of inhibitor. IC50 are calculated by standard methods.
(§9) Inhibition of human Cat S, mouse Cat S, human Cat K, human Cat B, human Cat L and mouse Cat L have been measured separately. The results obtained for human Cat S and L for representative compounds of the invention are expressed in the following table in μM.

| IC50 [nM] | Structure (SMILES) |
| --- | --- |
| 2.84 | N#CC1(NC(=O)[C@@H]2C[C@@H](S(=O)(=O)c3ncccc3Cl)CN2C(=O)C2(c3ncc(Cl)cc3F)CC2)CC1 [Example 14, (2S,4R)-1-[1-(5-Chloro-3-fluoro-pyridin-2-yl)-cyclopropanecarbonyl]-4-(3-chloropyridine-2-sulfonyl)-pyrrolidine-2-carboxylic acid (1-cyano-cyclopropyl)-amide] |
| 0.77 | N#CC1(NC(=O)[C@@H]2C[C@@H](S(=O)(=O)c3cccc(-c4ccc(F)cc4)c3)CN2C(=O)C2(c3ncc(Cl)cc3F)CC2)CC1 [Example 13, (2S,4R)-1-[1-(5-Chloro-3-fluoro-pyridin-2-yl)-cyclopropanecarbonyl]-4-(4′-fluorobiphenyl-3-sulfonyl)-pyrrolidine-2-carboxylic acid (1-cyano-cyclopropyl)-amide] |
| 127 | Cc1cccc(S[C@@H]2C[C@@H](C(=O)NC3(C#N)CC3)N(C(=O)C3(c4ncc(Cl)cc4F)CC3)C2)n1 [Example 19, (2S,4R)-1-[1-(5-Chloro-3-fluoro-pyridin-2-yl)-cyclopropanecarbonyl]-4-(6-methyl-pyridin-2-ylsulfanyl)-pyrrolidine-2-carboxylic acid (1-cyano-cyclopropyl)-amide] |
| 3.47 | N#CC1(NC(=O)[C@@H]2C[C@@H](Sc3cc(C(F)(F)F)ccc3Cl)CN2C(=O)C2(c3ncc(Cl)cc3F)CC2)CC1 [Example 26, (2S,4R)-1-[1-(5-Chloro-3-fluoro-pyridin-2-yl)-cyclopropanecarbonyl]-4-(2-chloro-5-trifluoromethyl-phenylsulfanyl)-pyrrolidine-2-carboxylic acid (1-cyano-cyclopropyl)-amide] |

Target: human Cat L (Homo sapiens (Human), UniProt P07711)
Assay: Cathepsin enzyme inhibition assay (fluorogenic peptide substrate), human Cat L
Type: biochemical
Settings: human Cat L 1 nM, substrate Z-Val-Val-Arg-AMC 20 μM, pH 6.5
Procedure: as §1, §2, §3, §4, §5, §6, §7, §8, §9

| IC50 [nM] | Structure (SMILES) |
| --- | --- |
| 15900 | N#CC1(NC(=O)[C@@H]2C[C@@H](Sc3ncccc3Cl)CN2C(=O)C2(c3ncc(Cl)cc3F)CC2)CC1 [Example 10, (2S,4R)-1-[1-(5-Chloro-3-fluoro-pyridin-2-yl)-cyclopropanecarbonyl]-4-(3-chloro-pyridin-2-ylsulfanyl)-pyrrolidine-2-carboxylic acid (1-cyano-cyclopropyl)-amide] |
| 111 | Cn1cc(-c2ccc(S(=O)(=O)[C@@H]3C[C@@H](C(=O)NC4(C#N)CC4)N(C(=O)C4(c5ncc(Cl)cc5Cl)CC4)C3)c(Cl)c2)cn1 [Example 40, (2S,4R)-4-[2-Chloro-4-(1-methyl-1H-pyrazol-4-yl)-benzenesulfonyl]-1-[1-(3,5-dichloro-pyridin-2-yl)-cyclopropanecarbonyl]-pyrrolidine-2-carboxylic acid (1-cyano-cyclopropyl)-amide] |
